Test results published in patent US12570752B2, “Combination therapy with an anti BCMA antibody and a gamma secretase inhibitor” (priority 2019, dated 2026).

Conditions: 2.5 mg/kg as two doses of 1.25 mg/kg on day 1 & day 8 compared to Q3W dosing

## belantamab mafodotin
  reduction in the maximum concentration: ~25%
